Experimental data from ChEMBL document CHEMBL1156090, “Design and synthesis of cell potent BACE-1 inhibitors: structure-activity relationship of P1' substituents” (Bioorg Med Chem Lett, 2009).

Sequences of proteins named here, by UniProt entry; tags and fusion partners are left off. A change or cut given only in a name is not applied to a line headed by its entry.
UniProt P56817: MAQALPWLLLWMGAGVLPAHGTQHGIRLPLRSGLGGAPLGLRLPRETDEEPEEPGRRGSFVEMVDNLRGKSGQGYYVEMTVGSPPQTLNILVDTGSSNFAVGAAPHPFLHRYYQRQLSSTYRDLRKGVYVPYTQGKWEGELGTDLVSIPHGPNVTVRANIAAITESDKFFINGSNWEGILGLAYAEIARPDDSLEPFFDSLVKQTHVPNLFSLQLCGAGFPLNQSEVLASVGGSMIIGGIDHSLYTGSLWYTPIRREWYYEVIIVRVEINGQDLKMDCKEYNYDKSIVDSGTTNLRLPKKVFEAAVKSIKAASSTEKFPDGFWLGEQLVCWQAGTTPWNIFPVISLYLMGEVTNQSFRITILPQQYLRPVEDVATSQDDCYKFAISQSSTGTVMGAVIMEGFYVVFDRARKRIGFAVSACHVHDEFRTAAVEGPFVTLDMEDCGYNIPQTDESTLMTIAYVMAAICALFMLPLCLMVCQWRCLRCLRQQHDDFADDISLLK

Molecular target: Beta-secretase 1 (Homo sapiens, UniProt P56817)

Question: How did the IC50 turn out when `CC(=O)N[C@@H](Cc1cc(F)cc(F)c1)[C@H](O)CNC1(c2cccc(C(C)(C)C)c2)CCc2n[nH]cc2C1` (mixture of isomers) was run?
Answer: Its IC50 is 0.012 µM.
